This note sets out measurements from ChEMBL document CHEMBL4270501, “Indole-fused azepines and analogues as anticancer lead molecules: Privileged findings and future directions” (Eur J Med Chem, 2017).

Chains of the proteins cited; added tags and fusions are not shown.
UniProt P06493, whole entry: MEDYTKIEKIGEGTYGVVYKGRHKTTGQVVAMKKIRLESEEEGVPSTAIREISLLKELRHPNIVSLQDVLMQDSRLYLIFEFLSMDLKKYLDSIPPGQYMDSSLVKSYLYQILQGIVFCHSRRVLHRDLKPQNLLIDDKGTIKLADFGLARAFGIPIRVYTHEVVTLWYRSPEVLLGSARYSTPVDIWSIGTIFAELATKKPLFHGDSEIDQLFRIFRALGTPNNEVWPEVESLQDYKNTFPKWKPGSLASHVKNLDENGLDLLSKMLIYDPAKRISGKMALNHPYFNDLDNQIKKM

This assay has as its target Cyclin-dependent kinase 1/cyclin B1 (Homo sapiens, UniProt P06493). The assay can be described thus: Inhibition of GST-tagged CDK1/cyclin B (unknown origin) expressed in Escherichia coli.

Turning to `O=C1Cc2c([nH]c3ccc(Br)cc23)-c2sccc2N1`, the IC50 – broadly, the concentration needed to halve the response being measured – turned out to be 600 nM.
